The target in this assay is Carbonic anhydrase 13 (Mus musculus) (UniProt Q9D6N1). Kind of assay: Inhibition of mouse CA13.

By UniProt entry, the sequences of proteins in these tests, tags left out. Where a name states a change or a piece, a line headed by the entry shows the natural chain unless it says otherwise.
UniProt Q9D6N1: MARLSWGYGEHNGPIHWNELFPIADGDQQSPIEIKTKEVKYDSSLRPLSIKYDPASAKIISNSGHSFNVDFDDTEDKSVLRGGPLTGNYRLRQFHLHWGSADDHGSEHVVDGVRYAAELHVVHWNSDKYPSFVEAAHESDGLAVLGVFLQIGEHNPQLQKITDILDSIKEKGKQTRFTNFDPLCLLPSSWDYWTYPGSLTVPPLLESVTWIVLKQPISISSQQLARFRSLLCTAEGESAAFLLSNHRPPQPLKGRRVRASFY

SMILES strings stand for the structures.

Here are results for 1 compound from ChEMBL document CHEMBL1149542, “Carbonic anhydrase inhibitors: inhibition of human, bacterial, and archaeal isozymes with benzene-1,3-disulfonamides--solution and crystallographic studies” (Bioorg Med Chem Lett, 2007).

`CC(=O)/N=c1/sc(S(N)(=O)=O)nn1C` came in with a Kinact of 19 nM.
